We go through 1 molecule from publication PMC4394048 (Molecular cancer therapeutics, 2015).

Chains of the proteins cited; added tags and fusions are not shown. Lines headed by an entry give the natural chain unless they say otherwise; changes in a name come on top.
UniProt Q9Y6L6: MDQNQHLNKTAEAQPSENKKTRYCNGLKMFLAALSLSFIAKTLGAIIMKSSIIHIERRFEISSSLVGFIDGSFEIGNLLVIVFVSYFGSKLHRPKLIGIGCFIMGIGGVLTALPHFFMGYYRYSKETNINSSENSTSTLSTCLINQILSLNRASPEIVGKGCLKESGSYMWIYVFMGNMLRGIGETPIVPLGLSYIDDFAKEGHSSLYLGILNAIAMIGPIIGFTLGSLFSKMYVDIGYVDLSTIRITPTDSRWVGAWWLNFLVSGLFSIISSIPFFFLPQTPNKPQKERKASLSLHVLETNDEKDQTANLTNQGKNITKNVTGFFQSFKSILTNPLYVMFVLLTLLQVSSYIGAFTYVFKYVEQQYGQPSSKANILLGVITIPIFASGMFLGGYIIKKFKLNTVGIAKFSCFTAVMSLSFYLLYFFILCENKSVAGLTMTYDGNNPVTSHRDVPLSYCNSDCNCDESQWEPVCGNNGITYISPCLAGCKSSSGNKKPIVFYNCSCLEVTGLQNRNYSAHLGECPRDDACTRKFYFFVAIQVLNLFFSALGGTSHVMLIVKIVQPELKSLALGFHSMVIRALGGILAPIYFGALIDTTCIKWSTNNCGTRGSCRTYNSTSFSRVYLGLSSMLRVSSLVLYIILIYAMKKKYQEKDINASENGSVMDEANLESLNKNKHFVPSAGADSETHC
UniProt Q9NPD5, whole entry S112A/M233I: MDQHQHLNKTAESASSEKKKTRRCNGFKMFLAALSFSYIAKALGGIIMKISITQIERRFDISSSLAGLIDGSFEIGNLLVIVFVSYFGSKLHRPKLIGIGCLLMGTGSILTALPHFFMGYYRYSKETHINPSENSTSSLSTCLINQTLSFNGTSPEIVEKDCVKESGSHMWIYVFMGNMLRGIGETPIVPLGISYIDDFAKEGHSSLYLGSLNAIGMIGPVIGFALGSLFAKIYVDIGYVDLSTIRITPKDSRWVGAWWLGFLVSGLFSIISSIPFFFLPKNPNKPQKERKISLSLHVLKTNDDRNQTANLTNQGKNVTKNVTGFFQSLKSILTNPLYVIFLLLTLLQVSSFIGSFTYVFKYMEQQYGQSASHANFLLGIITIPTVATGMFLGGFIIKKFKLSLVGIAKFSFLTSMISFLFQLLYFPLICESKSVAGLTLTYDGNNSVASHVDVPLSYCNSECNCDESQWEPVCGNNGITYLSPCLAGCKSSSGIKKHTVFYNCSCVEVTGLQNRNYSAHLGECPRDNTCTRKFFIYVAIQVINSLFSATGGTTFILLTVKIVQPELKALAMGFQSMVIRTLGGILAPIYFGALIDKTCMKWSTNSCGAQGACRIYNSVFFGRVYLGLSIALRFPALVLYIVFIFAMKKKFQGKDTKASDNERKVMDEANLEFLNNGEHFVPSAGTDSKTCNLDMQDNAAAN
UniProt Q9NPD5, whole entry M233I: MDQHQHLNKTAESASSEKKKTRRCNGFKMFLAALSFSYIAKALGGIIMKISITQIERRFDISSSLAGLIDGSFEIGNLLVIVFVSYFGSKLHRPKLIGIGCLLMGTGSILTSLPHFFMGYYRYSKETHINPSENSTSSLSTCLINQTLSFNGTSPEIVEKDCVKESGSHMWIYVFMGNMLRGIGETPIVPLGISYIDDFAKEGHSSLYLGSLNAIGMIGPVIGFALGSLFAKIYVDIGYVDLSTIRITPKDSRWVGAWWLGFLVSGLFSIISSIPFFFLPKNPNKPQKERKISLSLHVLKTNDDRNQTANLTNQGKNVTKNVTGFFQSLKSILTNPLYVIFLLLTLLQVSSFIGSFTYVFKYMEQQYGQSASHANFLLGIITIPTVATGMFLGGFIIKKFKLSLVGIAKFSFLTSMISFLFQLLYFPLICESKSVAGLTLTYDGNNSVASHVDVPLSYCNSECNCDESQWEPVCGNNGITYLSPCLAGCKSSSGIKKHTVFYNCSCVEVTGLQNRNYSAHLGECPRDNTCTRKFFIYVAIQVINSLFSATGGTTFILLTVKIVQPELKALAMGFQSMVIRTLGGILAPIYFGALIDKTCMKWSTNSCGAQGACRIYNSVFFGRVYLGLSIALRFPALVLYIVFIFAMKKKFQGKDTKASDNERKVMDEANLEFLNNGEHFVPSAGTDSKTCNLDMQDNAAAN
UniProt Q9NPD5, whole entry H520P: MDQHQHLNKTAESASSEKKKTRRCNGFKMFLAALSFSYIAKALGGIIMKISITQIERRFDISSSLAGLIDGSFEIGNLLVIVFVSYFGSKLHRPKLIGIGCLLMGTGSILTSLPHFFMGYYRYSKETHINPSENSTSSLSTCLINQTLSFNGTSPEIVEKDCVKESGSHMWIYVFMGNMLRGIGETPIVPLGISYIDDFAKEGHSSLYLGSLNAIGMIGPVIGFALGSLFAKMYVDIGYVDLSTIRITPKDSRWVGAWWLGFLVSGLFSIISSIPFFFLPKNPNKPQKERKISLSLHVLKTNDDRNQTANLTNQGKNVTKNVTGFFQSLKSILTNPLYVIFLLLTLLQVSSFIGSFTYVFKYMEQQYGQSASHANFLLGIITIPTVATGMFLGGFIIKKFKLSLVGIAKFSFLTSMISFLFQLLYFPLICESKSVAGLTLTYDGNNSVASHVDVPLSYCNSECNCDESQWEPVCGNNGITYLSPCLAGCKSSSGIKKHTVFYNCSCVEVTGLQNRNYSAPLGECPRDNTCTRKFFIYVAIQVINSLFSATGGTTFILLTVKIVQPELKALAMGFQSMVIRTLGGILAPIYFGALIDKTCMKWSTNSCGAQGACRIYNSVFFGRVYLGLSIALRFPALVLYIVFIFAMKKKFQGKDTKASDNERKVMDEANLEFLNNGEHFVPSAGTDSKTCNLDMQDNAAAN
UniProt Q9NPD5, whole entry V560A: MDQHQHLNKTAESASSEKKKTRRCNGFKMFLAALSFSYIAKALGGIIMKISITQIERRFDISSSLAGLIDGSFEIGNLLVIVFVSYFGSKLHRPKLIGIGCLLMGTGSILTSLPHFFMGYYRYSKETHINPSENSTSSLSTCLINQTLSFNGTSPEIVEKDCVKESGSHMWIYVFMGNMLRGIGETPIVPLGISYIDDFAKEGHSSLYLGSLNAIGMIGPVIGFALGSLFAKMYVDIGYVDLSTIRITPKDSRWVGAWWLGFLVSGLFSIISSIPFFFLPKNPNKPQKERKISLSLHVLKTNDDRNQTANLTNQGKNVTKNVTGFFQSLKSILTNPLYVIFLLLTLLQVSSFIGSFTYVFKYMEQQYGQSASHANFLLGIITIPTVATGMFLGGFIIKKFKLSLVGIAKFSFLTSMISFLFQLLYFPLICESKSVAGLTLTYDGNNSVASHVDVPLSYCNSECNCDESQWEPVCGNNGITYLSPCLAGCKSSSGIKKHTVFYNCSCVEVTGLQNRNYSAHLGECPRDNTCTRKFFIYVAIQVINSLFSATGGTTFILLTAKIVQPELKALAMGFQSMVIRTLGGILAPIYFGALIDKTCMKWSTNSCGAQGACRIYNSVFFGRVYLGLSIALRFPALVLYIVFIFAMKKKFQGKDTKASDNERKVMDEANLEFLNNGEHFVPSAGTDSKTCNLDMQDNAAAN

One data set deals with OATP1B1 (Homo sapiens, UniProt Q9Y6L6). The experiment in a line: Docetaxel transport kinetics in HeLa cells expressing OATP1B1. The following applies: high affinity, low capacity component, 0.1-300 μM.
Data set [1] concerns the target OATP1B3 variants (Homo sapiens, UniProt Q9NPD5, M233I/S112A).
In data set [2] the target is OATP1B3 variants (Homo sapiens, UniProt Q9NPD5, M233I).
Data set [3] addresses OATP1B3 variants (Homo sapiens, UniProt Q9NPD5, H520P).
Data set [4] concerns the target OATP1B3 variants (Homo sapiens, UniProt Q9NPD5, V560A).
A short description of data set [5]: Docetaxel distribution in Slco1b2−/− and wild-type mice.
The conditions of data set [6]: cited from earlier work.

Structures are written as SMILES.

For `CC(=O)O[C@@]12CO[C@@H]1C[C@H](O)[C@@]1(C)C(=O)[C@H](O)C3=C(C)[C@@H](OC(=O)[C@H](O)[C@@H](NC(=O)OC(C)(C)C)c4ccccc4)C[C@@](O)([C@@H](OC(=O)c4ccccc4)[C@H]21)C3(C)C` [docetaxel], at OATP1B1, the Vmax is 37.7 ± 47.2 pmol/mg/min. The “docetaxel uptake relative to wild-type OATP1B3*1” value on OATP1B3 variants [1], on OATP1B3 variants [2], on OATP1B3 variants [3] and at OATP1B3 variants [4] was “impaired docetaxel transport” throughout. Moreover, the “plasma AUC in Slco1b2−/− mice relative to wild-type mice (greater)” value in data set [5] (1 mg/kg intravenous, male mice) was ~ 5.5 fold. Further, in data set [5] (30 min after 1 mg/kg intravenous, p < 0.05), the “liver-to-plasma ratio, decrease in Slco1b2−/− versus wild-type mice” value is ~ 3 fold. Moreover, in data set [5] (p<0.01), the “plasma concentrations in Slco1b2−/− mice, higher than wild-type mice” value was approximately 5.5 fold. Further, the “decrease in clearance in Slco1b2−/− mice” value in data set [6] is 18 fold.
